Active and inactive are the calls of the source.
Key:
Format in all cases: cell-based
[1] = biological target: Transient receptor potential cation channel subfamily A member 1 (Homo sapiens) (UniProt O75762); test: Agonist activity at human TRPA1 expressed in HEK293 cells assessed as increase in calcium flux by Fluo-8 NW dye based FLIPR TETRA method
[2] = biological target: Transient receptor potential cation channel subfamily V member 1 (Homo sapiens) (UniProt Q8NER1); test: Agonist activity at human TRPV1 stably expressed in CHOK1 cells assessed as increase in calcium flux by Fluo-8 NW dye based FLIPR TETRA method; details: CHO-K1
[3] = biological target: Sodium channel protein type 9 subunit alpha (Homo sapiens) (UniProt Q15858); test: Agonist activity at human Nav1.7 expressed in HEK293 cells assessed as increase in calcium flux by FLIPR dye based FLIPR TETRA method
[4] = biological target: Transient receptor potential cation channel subfamily A member 1 (Homo sapiens) (UniProt O75762); test: Antagonist activity at human TRPA1 expressed in HEK293 cells assessed as inhibition of AITC-induced increase in calcium flux by Fluo-8 NW dye based FLIPR TETRA method
[5] = biological target: Transient receptor potential cation channel subfamily V member 1 (Homo sapiens) (UniProt Q8NER1); test: Antagonist activity at human TRPV1 stably expressed in CHOK1 cells assessed as inhibition of capsaicin-induced increase in calcium flux by Fluo-8 NW dye based FLIPR TETRA method; details: CHO-K1
[6] = biological target: Sodium channel protein type 9 subunit alpha (Homo sapiens) (UniProt Q15858); test: Antagonist activity at human Nav1.7 expressed in HEK293 cells assessed as inhibition of veratridine-induced increase in calcium flux by FLIPR dye based FLIPR TETRA method

Protein sequences, listed by entry. Tags and fused reporters are not part of them.
UniProt O75762, whole entry: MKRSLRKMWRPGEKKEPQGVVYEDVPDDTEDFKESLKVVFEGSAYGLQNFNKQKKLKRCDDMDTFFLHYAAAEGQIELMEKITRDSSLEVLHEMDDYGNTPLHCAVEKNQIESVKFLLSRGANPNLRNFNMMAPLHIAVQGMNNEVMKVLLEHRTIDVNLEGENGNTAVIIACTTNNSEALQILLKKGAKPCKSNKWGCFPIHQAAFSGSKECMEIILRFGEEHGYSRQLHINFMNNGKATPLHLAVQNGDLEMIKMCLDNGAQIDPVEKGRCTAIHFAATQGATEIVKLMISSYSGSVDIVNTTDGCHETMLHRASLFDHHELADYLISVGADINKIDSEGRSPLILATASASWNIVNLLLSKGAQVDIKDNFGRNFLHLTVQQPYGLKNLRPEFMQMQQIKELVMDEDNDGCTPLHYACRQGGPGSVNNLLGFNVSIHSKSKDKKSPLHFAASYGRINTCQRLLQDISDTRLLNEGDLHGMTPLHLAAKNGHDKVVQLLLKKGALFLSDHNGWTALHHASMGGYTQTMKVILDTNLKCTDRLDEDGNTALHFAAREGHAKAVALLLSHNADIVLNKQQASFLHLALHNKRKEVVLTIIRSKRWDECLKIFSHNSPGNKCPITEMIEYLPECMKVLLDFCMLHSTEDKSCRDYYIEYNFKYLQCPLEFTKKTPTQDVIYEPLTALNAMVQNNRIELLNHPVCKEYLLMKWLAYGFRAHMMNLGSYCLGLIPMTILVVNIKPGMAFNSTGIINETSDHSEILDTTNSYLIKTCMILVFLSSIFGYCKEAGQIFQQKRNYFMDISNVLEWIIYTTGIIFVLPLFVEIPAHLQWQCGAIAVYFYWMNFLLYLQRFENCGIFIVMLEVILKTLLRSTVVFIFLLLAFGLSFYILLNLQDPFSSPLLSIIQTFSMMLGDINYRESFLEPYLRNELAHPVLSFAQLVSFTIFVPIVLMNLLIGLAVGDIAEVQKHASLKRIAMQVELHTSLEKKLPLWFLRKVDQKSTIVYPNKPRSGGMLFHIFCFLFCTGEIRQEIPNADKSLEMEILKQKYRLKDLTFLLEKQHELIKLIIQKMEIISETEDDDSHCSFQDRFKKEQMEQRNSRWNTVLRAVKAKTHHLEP
UniProt Q8NER1, whole entry: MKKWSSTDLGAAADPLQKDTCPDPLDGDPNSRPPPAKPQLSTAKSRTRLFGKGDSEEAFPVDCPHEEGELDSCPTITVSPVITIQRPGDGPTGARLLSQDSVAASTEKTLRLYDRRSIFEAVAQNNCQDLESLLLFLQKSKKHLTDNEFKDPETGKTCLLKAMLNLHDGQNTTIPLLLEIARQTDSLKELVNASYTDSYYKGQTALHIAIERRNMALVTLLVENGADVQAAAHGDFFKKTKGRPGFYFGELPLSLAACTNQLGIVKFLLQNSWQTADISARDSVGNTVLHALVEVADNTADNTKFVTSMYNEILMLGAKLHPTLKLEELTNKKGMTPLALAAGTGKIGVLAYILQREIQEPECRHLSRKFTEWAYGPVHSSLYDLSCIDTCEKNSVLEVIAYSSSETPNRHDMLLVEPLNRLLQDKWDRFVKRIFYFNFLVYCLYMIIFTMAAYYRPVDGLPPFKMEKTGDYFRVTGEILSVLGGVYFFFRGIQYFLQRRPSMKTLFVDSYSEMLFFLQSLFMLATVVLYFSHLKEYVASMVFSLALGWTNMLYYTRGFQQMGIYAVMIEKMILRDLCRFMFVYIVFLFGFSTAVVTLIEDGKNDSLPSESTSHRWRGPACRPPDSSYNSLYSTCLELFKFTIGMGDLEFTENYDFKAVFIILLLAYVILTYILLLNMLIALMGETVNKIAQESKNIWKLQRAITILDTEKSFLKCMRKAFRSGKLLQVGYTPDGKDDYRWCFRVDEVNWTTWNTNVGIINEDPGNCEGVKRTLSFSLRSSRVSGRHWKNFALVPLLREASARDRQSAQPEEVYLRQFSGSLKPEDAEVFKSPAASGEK
UniProt Q15858, whole entry, looked up: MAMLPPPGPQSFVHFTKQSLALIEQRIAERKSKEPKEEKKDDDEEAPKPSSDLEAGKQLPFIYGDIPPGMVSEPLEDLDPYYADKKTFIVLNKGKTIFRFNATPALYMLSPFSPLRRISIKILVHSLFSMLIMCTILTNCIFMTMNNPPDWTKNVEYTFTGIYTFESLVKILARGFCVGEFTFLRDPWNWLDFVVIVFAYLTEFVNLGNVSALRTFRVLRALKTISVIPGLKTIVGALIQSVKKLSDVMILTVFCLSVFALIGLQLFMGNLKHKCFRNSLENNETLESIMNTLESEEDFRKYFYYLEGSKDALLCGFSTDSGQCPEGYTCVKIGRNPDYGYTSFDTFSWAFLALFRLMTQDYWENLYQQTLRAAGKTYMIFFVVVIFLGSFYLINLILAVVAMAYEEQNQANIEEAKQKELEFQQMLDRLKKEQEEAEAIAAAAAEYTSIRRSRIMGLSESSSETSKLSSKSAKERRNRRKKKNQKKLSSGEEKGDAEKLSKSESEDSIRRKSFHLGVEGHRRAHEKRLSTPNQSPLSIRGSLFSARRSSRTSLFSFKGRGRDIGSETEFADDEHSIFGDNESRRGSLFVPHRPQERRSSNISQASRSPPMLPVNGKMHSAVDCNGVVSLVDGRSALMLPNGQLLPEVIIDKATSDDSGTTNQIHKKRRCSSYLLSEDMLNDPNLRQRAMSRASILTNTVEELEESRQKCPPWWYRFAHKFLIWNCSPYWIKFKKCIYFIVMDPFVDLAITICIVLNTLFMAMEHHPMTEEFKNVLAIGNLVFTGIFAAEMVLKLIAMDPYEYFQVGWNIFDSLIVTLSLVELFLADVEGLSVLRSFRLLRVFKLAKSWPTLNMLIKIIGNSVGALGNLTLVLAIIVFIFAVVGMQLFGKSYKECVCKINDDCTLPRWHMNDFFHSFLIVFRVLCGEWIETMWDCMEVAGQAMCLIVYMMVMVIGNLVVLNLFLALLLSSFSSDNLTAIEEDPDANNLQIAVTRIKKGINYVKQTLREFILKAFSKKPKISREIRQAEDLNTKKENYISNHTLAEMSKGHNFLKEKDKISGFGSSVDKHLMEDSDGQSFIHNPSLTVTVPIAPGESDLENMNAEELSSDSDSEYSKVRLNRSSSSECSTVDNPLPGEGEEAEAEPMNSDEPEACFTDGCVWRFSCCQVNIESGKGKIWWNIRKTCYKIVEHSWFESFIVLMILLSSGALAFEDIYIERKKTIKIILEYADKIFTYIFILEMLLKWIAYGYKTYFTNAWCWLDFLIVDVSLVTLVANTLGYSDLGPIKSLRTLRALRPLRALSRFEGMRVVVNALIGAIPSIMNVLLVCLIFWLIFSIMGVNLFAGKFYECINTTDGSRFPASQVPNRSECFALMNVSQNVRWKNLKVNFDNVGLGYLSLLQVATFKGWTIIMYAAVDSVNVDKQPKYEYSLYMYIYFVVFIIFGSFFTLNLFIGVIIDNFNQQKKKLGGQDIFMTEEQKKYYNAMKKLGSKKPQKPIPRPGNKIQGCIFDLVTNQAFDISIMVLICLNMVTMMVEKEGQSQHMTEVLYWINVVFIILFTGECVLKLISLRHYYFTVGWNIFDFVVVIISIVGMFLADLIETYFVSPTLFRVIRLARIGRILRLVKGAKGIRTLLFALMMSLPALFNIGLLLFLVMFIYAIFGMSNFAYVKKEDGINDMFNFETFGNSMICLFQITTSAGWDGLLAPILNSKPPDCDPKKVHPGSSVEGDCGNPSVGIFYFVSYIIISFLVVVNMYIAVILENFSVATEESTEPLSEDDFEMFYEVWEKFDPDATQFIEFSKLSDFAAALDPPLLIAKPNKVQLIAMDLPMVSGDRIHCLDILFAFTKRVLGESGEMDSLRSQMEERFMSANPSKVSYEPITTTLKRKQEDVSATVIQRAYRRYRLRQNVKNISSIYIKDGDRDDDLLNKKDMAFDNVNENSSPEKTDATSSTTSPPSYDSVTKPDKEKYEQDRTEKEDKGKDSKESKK

O=C1[C@@H]2Cc3c([nH]c4ccccc34)[C@H](c3ccc(F)cc3)N2C(=O)N1c1cccc(C(F)(F)F)c1
active: Activity [1] | Activity [2] | Activity [3] | inhibition [4] | inhibition [5] | inhibition [6]

COC(=O)CC[C@H]1N[C@H](C(=O)NCc2ccc(F)cc2)Cc2c1[nH]c1ccccc21
active: Activity [1] | Activity [2] | Activity [3] | inhibition [4] | inhibition [5] | inhibition [6]

COC(=O)[C@@H]1Cc2c([nH]c3ccccc23)[C@@H](c2ccccc2)N1Cc1ccccc1
active: Activity [1] | Activity [2] | Activity [3] | inhibition [4] | inhibition [5]

O=C1N[C@H](Cc2ccccc2)C(=O)N2Cc3[nH]c4ccccc4c3C[C@@H]12
active: Activity [1] | Activity [2] | Activity [3] | inhibition [4] | inhibition [5] | inhibition [6]

O=C(NCc1ccc(F)cc1)[C@@H]1Cc2c([nH]c3ccccc23)CN1
active: Activity [1] | Activity [2] | Activity [3] | inhibition [4] | inhibition [5]

O=C1[C@@H]2Cc3c([nH]c4ccccc34)[C@@H](c3ccc(Cl)cc3)N2C(=O)N1Cc1ccc(F)cc1
active: Activity [1] | Activity [2] | Activity [3] | inhibition [4] | inhibition [5] | inhibition [6]

Source: ChEMBL document CHEMBL4622981, “Exploration of TRPM8 Binding Sites by β-Carboline-Based Antagonists and Their In Vitro Characterization and In Vivo Analgesic Activities” (J Med Chem, 2020)
